Test results reported in article PMC11905058, “Novel Leech Antimicrobial Peptides, Hirunipins: Real‐Time 3D Monitoring of Antimicrobial and Antibiofilm Mechanisms Using Optical Diffraction Tomography” (Advanced Science, 2025).

Tests used:
Type in all cases: cell-based
MDRAB (329-53) = settings: clinically isolated multidrug-resistant Acinetobacter baumannii; broth microdilution
Description: (§1) The MICs of the peptides were measured by the Clinical and Laboratory Standards Institute (CLSI) broth microdilution method, as outlined in a previous study.^[ [26], [27] ^]
(§2) Microbial Strains and Cell Lines: Multiple bacterial strains were used in this study. Standard stains included Escherichia coli (KCTC 1682), Pseudomonas aeruginosa (KCTC 1637), Staphylococcus aureus (KCTC1621) and Staphylococcus epidermidis (KCTC 1917) supplied from the Korean Collection for Type Cultures (KCTC) of the Korea Research Institute of Bioscience and Biotechnology (KRIBB). Clinically isolated multidrug-resistant bacteria included multidrug-resistant Klebsiella pneumonia (MDRKP 328-83), multidrug-resistant Acinetobacter baumannii (MDRAB 329-53), multidrug-resistant Pseudomonas aeruginosa (MDRPA 314-69), multidrug-resistant Enterobacter cloacae (MDRE 328-84) and multidrug-resistant Escherichia coli (MDREC 329-66) provided from Hospital of Chosun University, Korea. All bacterial strains were stored in 20% glycerol at −80 °C. For the subsequent experiments, the bacteria were recovered and cultured in the corresponding enrichment broth at 37 °C. The mouse macrophage RAW264.7, mouse fibroblast NIH-3T3 and human keratinocyte HaCat cells were cultured in Dulbecco’s modified Eagle’s medium (DMEM), supplemented with 10% (v/v) of fetal bovine serum (Sigma-Aldrich), 100 U/mL of penicillin and 0.1 mg/mL of streptomycin, at 37 °C in the presence of 5% CO2
(§3) Minimal Inhibitory Concentrations (MICs): Bacteria were grown to mid-logarithmic phase and diluted in Mueller-Hinton broth (MHB) (Difco). The bacterial suspension (1×10^6 CFU/well) was added to a 96-well microtiter plate along with a two-fold serial dilution of samples. The plate was incubated at 37 °C for 24 hours and the bacterial growth inhibition was assessed by measuring the optical density using an ELISA plate reader. The minimum inhibitory concentration (MIC) was defined as the lowest concentration of samples that prevented visible bacterial growth.

MDRKP (328-83) = settings: clinically isolated multidrug-resistant Klebsiella pneumonia; broth microdilution
Description: as §1, §2, §3

MDRPA (314-69) = settings: clinically isolated multidrug-resistant Pseudomonas aeruginosa; broth microdilution
Description: as §1, §2, §3

MDREC (329-66) = settings: clinically isolated multidrug-resistant Escherichia coli; broth microdilution
Description: as §1, §2, §3

`CC[C@H](C)[C@H](NC(=O)CN)C(=O)NCC(=O)N[C@@H](C)C(=O)N[C@H](C(=O)N[C@@H](CC(C)C)C(=O)N[C@@H](CCCCN)C(=O)N[C@H](C(=O)N[C@@H](CC(C)C)C(=O)N[C@H](C(=O)N[C@H](C(=O)NCC(=O)N[C@@H](CC(C)C)C(=O)N1CCC[C@H]1C(=O)N[C@@H](C)C(=O)N[C@@H](CC(C)C)C(=O)N[C@H](C(=O)N[C@@H](CO)C(=O)N[C@@H](Cc1c[nH]c2ccccc12)C(=O)N[C@H](C(=O)N[C@@H](CCCCN)C(=O)N[C@@H](CCCNC(=N)N)C(=O)N[C@@H](CCCCN)C(=O)N[C@@H](CCCNC(=N)N)C(=O)N[C@@H](CCC(N)=O)C(=O)N[C@@H](CCC(N)=O)C(N)=O)[C@@H](C)CC)[C@@H](C)CC)[C@@H](C)O)[C@@H](C)O)C(C)C)C(C)C` [Melittin, reference compound] was tested. Which “Minimum inhibitory concentrations, MDRAB (329-53)” value (MDRAB (329-53)) did it give?
Its value is 32 µg/mL (≈ 11.2 µM).

What about the “Minimum inhibitory concentrations, MDRKP (328-83)” value (MDRKP (328-83)) of the same molecule?
The value was 128 µg/mL (≈ 45 µM).

What about the “Minimum inhibitory concentrations, MDRPA (314-69)” value (MDRPA (314-69)) of the same molecule?
The value was 32 µg/mL (≈ 11.2 µM).

What about the “Minimum inhibitory concentrations, MDREC (329-66)” value (MDREC (329-66)) of the same molecule?
The value was 32 µg/mL (≈ 11.2 µM).

Converted amounts (≈) assume the structure as drawn.
